{"source": "patent US6114175A", "about": "“Compound for the antemortem diagnosis of Alzheimer's Disease and in vivo imaging and prevention of amyloid deposition” (priority 1998, dated 2000)", "key": {"AD brain": {"test_system": "AD brain", "assay": "Total [^14 C]Chrysamine G binding in AD brain homogenates", "conditions": "n = 11, p = 0.15"}, "control brain": {"test_system": "control brain", "assay": "Total [^14 C]Chrysamine G binding in control brain homogenates", "conditions": "n = 8"}}}
{"smiles": "O=C(O)c1cc(N=Nc2ccc(-c3ccc(N=Nc4ccc(O)c(C(=O)O)c4)cc3)cc2)ccc1O", "note": "[Chrysamine G, 4,4'-bis(3-carboxy-4-hydroxyphenylazo)-biphenyl]", "values": [{"measurement": "total binding, Occipital", "setting": "AD brain", "value": "95 ± 12", "unit": "fmol/μg protein"}, {"measurement": "total binding, Occipital", "setting": "control brain", "value": "64 ± 16", "unit": "fmol/μg protein"}]}
